# Laboratory results as given in EP2913333A1 (priority 2014, dated 2015).
# How the values were obtained:
# E. feacalis DltA = target: T1, E. feacalis DltA (Enterococcus faecalis, UniProt Q830N0); experiment: biochemical
# T1 sequence (Q830N0 1-506): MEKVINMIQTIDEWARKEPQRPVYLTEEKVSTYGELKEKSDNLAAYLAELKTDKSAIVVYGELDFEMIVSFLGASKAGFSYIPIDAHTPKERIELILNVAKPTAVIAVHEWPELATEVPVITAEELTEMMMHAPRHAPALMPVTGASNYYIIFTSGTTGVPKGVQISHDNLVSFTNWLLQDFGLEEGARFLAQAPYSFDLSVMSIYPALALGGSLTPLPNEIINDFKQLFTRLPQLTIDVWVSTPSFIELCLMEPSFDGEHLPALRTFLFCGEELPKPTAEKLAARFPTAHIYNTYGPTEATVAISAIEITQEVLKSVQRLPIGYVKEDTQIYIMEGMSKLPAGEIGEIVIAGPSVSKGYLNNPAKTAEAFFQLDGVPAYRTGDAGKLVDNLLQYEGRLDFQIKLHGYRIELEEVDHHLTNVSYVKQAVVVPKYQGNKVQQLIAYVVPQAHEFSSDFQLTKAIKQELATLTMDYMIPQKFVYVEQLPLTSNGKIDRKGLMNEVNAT
# Method: (§1) To this end, recombinant proteins DltA were expressed and purified after cloning of the genes of S. aureus, E. faecalis, E. faecium and S. agalactiae as described thereafter. The capacity of the compounds of the invention to inhibit DltA enzymatic activity was assessed using the DltA assays as described below: • The dltA gene was amplified from chromosomal DNA of S. aureus, E. faecalis, E. faecium and S. agalactiae and introduced into E. coli BL21 (Invitrogen, Carlsbad, CA) following manufacturer's instruction. Bacteria were grown at 37°C under aerobic conditions and isopropyl-beta-D-thiogalactopyranoside (IPTG) was added to 0.5-1 mM when OD600 of the bacterial culture had reached 0.5. After a further incubation for 3 hours, cells were harvested by centrifugation. Purification of the recombinant DltA protein was performed by affinity chromatography on nickel-nitrilotriacetic acid (Ni-NTA) column following manufacturer's instructions (Qiagen). Fractions containing recombinant DltA protein were adjusted to 50% glycerol and stored at -20°C until use.
# (§2) The binding potency of the inhibitors against DltA enzyme was assessed by IC50 determination in an in vitro DltA activity assay. […] Luminescence intensity was immediately measured on a Fluostar Optima (BMG) (excitation 360nm, emission 520nm) and converted into inhibition percentages. […]
# S. Agalactiae DltA = target: T2, S. Agalactiae DltA (Streptococcus agalactiae serotype III, UniProt Q8VM67); experiment: biochemical
# T2 sequence (Q8VM67 1-511): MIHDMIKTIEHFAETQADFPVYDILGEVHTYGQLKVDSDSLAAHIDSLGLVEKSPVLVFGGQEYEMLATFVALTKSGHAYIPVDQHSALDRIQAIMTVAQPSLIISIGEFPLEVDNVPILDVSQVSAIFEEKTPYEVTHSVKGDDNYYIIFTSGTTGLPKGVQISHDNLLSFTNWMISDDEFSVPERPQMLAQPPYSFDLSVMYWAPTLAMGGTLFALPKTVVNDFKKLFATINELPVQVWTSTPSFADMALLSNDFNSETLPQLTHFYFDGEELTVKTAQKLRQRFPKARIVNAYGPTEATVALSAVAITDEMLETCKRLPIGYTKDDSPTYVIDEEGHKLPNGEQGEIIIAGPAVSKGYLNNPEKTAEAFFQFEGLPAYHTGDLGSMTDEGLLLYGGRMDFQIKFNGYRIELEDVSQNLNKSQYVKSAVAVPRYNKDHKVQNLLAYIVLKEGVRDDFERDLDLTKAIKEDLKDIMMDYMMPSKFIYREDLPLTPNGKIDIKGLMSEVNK
# Method: as §1, §2
structure (smiles),measurement,setting,value
CC1CCCC(n2cnc3cc(-c4sc(N5CC[C@H](CO)C5)c5c(=O)[nH]cnc45)ccc32)C1 (some centres unmarked) [Example 48],IC50,E. feacalis DltA,46 nM
same,IC50,S. Agalactiae DltA,3700 nM
